Test system: bovine gamma crystallins
Test: Screen: H2O2 and heat mediated aggregation of bovine gamma crystallins, turbidimetry at 600 nm
Format: biochemical
Conditions: bovine γ-crystallin-rich proteins, oxidant stress 24 h and/or thermal stress 72 °C 20 min
Protocol: For the initial screen, a microtiter plate assay was developed in which bovine crystallins (2 mg/ml of 50 mM K3PO4 buffer, pH 7.2 [buffer A]) were exposed to H2O2 at varying concentrations (1–50 mM) for 12 to 36 h, upon which turbidity developed (at 50 mM H2O2 concentration) in both β- and γ-crystallins (Fig. 1, A and B). […] This was determined by turbidimetry at 600 nm (Fig. 1C) and confirmed using visual assessment of solution transparency over a fine text as well as the presence of cloudy aggregates visible by dark field microscopy (Fig. 1D). The drug:protein stoichiometric ratio was about 5:1. […]
Wells were filled with 90 μl calf γ-crystallin-rich protein solution (pool 4 at 2 mg/ml) followed by 0.5 to 5.0 μl of drug (all 10 mM stock solution in DMSO) as supplied by the manufacturer and 10 μl H2O2 (450 mM stock solution in water) and sealed with sticky Applied Biosystems MicroAmp Clear Adhesive films (Life Technologies). […] In order to quantitate the impact of the drugs on aggregation, a fitness plot was created (Fig. 1 C) that allowed us to identify wells with enhanced/worsening versus suppressed crystallin aggregation. In addition, aggregation in each well was also visually assessed by two independent “blinded” readers for the ability to read fine print through each well by placing the plates over small font text (Fig. 1D). […]

Oc1c(Cl)cc(Cl)c(Cl)c1Cc1c(O)c(Cl)cc(Cl)c1Cl [drug X, Hexachlorophene]
Antiaggregation activity: Medium heat shock inhibitor
